Reference: patent US20230322745A1, “FUSED TRICYCLIC DERIVATIVE AND PHARMACEUTICAL APPLICATION THEREOF” (CHIA TAI TIANQING PHARMACEUTICAL GROUP CO., LTD., priority 2020, published 2023)

Amino acid sequences for entries named in this document (tags omitted).
UniProt P07550, whole entry: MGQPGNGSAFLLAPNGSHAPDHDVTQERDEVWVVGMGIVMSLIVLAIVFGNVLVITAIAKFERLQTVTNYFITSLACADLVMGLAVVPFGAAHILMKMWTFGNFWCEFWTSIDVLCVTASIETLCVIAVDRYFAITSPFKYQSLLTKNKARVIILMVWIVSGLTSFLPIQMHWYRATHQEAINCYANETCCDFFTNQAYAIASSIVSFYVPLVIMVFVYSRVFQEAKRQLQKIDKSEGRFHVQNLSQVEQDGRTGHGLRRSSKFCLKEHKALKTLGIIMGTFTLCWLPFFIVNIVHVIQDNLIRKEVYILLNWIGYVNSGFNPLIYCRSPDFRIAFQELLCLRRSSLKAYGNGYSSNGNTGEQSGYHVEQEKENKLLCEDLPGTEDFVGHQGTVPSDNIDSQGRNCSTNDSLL
UniProt P08588, whole entry: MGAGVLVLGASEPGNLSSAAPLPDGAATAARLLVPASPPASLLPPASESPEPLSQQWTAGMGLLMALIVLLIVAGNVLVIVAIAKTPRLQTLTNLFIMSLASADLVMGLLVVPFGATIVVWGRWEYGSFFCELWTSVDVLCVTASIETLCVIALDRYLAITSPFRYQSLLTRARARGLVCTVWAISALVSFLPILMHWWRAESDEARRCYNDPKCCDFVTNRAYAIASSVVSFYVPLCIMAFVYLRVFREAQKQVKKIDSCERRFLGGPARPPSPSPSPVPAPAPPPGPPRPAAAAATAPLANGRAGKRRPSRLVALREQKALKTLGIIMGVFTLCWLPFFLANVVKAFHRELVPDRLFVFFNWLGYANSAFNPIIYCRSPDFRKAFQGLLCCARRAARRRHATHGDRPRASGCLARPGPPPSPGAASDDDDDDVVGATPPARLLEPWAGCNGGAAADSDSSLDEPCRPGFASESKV
UniProt P08172, whole entry: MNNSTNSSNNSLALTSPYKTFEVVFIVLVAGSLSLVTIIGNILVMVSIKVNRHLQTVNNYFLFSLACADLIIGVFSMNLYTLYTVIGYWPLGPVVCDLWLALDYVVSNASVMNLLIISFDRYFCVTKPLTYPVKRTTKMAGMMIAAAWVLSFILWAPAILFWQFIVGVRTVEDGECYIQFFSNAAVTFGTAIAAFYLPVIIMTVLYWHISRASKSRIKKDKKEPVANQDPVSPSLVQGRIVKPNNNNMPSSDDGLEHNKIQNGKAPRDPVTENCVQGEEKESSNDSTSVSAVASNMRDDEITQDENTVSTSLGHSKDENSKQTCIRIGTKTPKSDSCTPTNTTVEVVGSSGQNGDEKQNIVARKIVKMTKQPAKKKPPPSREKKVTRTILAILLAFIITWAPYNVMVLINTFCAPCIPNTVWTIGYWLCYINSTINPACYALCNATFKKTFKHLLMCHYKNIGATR
UniProt P20309, whole entry: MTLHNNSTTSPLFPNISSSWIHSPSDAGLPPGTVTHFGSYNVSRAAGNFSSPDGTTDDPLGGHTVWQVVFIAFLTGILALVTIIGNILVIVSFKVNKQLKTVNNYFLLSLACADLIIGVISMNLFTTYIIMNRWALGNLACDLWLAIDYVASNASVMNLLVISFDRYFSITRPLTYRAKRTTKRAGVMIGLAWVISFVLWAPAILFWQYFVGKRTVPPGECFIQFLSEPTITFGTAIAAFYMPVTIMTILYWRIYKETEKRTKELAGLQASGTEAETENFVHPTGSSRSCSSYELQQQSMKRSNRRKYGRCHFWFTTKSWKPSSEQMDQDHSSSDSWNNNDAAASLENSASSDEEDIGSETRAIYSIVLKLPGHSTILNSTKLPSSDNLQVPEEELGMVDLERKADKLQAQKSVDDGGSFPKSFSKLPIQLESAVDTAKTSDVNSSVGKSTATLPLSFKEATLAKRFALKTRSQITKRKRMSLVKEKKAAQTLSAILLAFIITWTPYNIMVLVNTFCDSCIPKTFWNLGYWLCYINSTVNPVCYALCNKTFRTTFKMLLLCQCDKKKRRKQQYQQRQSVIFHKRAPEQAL

Key:
[1] = biological target: β2 receptor (cells expressing human ADRB2 gene) (Homo sapiens (Human), UniProt P07550); assay: Agonistic effect on β2 receptor by HTRF cAMP method
Description: (§1) β2 receptor is a G protein-coupled receptor, which is mainly coupled with Gs protein, and can activate adenylate cyclase activity through the Gs protein after being activated by binding to the ligand, thereby increasing the level of intracellular cAMP. In this experiment, the agonistic activity of the compounds against the β2 receptor in vitro was assayed by the cAMP kit.
(§2) β2 cells (expressing human ADRB2 gene) from ICE Bioscience Inc. were grown under standard conditions. The cells were collected and diluted with 1× Stimulation Buffer, and 9 μL of the cell dilution was added to a white low-volume 384-well plate with 1000 cells seeded in each well. Compounds were serially diluted in DMSO in a 5-fold gradient to obtain 10 concentrations. Before testing, compounds that had been serially diluted in DMSO were subjected to 100-fold dilution with 1× Stimulation Buffer to obtain compound working solutions. The concentration of the vehicle DMSO was 0.1%. Eu-cAMP and ULight™-anti-cAMP were diluted to the working concentration with Detection buffer. 5 μL of Eu-cAMP diluent and 5 μL of ULight™-anti-cAMP diluent were sequentially added into corresponding experiment wells. After 1 h of incubation at room temperature, readings at 665 nm and 620 nm were measured under the excitation wavelength of 330 nm using a Biotek microplate reader. The activity of the compounds was obtained by plotting through Ratio (665/620) against the concentration of the compounds, fitting the curve by a nonlinear regression method using GraphPad Prism 7 software and calculating EC50.

[2] = biological target: β1 receptor (cells expressing human ADRB1 gene) (Homo sapiens (Human), UniProt P08588); assay: Agonistic effect on β1 receptor by HTRF cAMP method
Description: as §1, with “β1” for “β2”
as §2, with “β1” for “β2”, “ADRB1” for “ADRB2”, “4000” for “1000”

M2 receptor = M2 receptor (Homo sapiens (Human), UniProt P08172); assay: M2 receptor affinity test (3H-NMS competition); details: read-out: IC50, activity against the M2 receptor in vitro, 0.2 nM 3H-NMS, M2 receptor membrane protein, 2 h at room temperature
Description: M2 receptor is a G protein-coupled receptor. In this experiment, the activity of test compounds against the M2 receptor in vitro was assayed by the competition of radioisotope labeled NMS and non-isotope labeled test compounds for an M2 binding site.
(§3) The M2 receptor membrane protein was prepared at 100 μg/mL by Biology Department of WuXi AppTec, and compounds were serially diluted in a 2.5-fold gradient in DMSO to obtain 10 concentrations. Radioisotope 3H-NMS was prepared at 0.2 nM in an assay buffer (10 mM HEPES, 1 mM MgCl2, pH 7.40). In formal testing, the experimental system comprising 1 μL of the test compound, 100 μL of M2 receptor membrane protein and 100 μL of radioisotope was shaken in a shaker at 300 RPM for 2 h at room temperature. A GF/C plate (Perkin Elmer, Cat No. 6055690) was prefoamed with 0.3% PEI, and the membrane proteins in the reaction solution were collected by filtration onto the GF/C plate. The signal values were read by a Perkin Elmer Microbeta2 instrument and the inhibition rate for each concentration point was shown as a percentage.

M3 receptor = M3 receptor (Homo sapiens (Human), UniProt P20309); assay: M3 receptor affinity test (3H-NMS competition); details: read-out: IC50, activity against the M3 receptor in vitro, 0.2 nM 3H-NMS, M3 receptor membrane protein, 2 h at room temperature
Description: M3 receptor is a G protein-coupled receptor. In this experiment, the activity of test compounds against the M3 receptor in vitro was assayed by the competition of radioisotope labeled NMS and non-isotope labeled test compounds for an M3 binding site.
as §3, with “The experiment was performed by a radioisotope affinity assay. The M3” for “The M2”, “at 10” for “at 100”, “1” for “1 μL”, “of M3” for “of M2”

[3] = read-out: EC50, agonistic activity against the β2 receptor in vitro, 1 h incubation at room temperature, tested form: TFA
[4] = read-out: EC50, agonistic activity against the β1 receptor in vitro, 1 h incubation at room temperature, tested form: TFA

| Compound | EC50 ([1]; read-out: EC50, agonistic activity against the β2 receptor in vitro, 1 h incubation at room temperature, tested form: formate) [nM] | EC50 ([2]; read-out: EC50, agonistic activity against the β1 receptor in vitro, 1 h incubation at room temperature, tested form: formate) [nM] | IC50 (M2 receptor; tested form: formate) [nM] | IC50 (M3 receptor; tested form: formate) [nM] | EC50 [1, 3] [nM] | EC50 [2, 4] [nM] | IC50 (M2 receptor; tested form: TFA) [nM] | IC50 (M3 receptor; tested form: TFA) [nM] |
| --- | --- | --- | --- | --- | --- | --- | --- | --- |
| Cc1ccc(C(O)(C(=O)O[C@H]2CC[C@H](N(C)CCCn3cnc4cc(CNC[C@H](O)c5ccc(O)c6[nH]c(=O)ccc56)c5c(c43)CCC5)CC2)c2cccs2)s1 (single isomer, unassigned) [Formate salt of compound 39] | 21.9 | 300 | 1.25 | 0.533 |  |  |  |  |
| CN(CCCn1nnc2cc(CNC[C@H](O)c3ccc(O)c4[nH]c(=O)ccc34)c3c(c21)CCC3)[C@H]1CC[C@H](OC(=O)C(O)(c2cccs2)c2ccc(Br)s2)CC1 (single isomer, unassigned) [Trifluoroacetate salt of compound 15] |  |  |  |  | 1.89 | 382 | 0.13 | 0.198 |
| CN(CCCn1nnc2cc(CNC[C@H](O)c3ccc(O)c4[nH]c(=O)ccc34)c3c(c21)CCC3)[C@H]1CC[C@H](OC(=O)C(O)(c2cccs2)c2ccc(Br)s2)CC1 (single isomer, unassigned) [Trifluoroacetate salt of compound 16] |  |  |  |  | 2.16 | 276 | 0.104 | 0.255 |
| CN(CCCn1nnc2cc(CNC[C@H](O)c3ccc(O)c4[nH]c(=O)ccc34)c3c(c21)CCC3)[C@H]1CC[C@H](OC(=O)C(O)(c2cccs2)c2ccc(Cl)s2)CC1 (single isomer, unassigned) [Trifluoroacetate salt of compound 28] |  |  |  |  | 1.41 | 253 | 0.0825 | 0.136 |
| CN(CCCn1nnc2cc(CNC[C@H](O)c3ccc(O)c4[nH]c(=O)ccc34)c3c(c21)CCC3)[C@H]1CC[C@H](OC(=O)C(O)(c2cccs2)c2ccc(Cl)s2)CC1 (single isomer, unassigned) [Trifluoroacetate salt of compound 29] |  |  |  |  | 2.73 | 432 | 0.146 | 0.324 |

Where a name gives a salt, the structure may show the parent alone. Read-outs that look alike come from different tables or passages of the source.
